Measurements: publication PMC6979384, “Characterization of the plant homeodomain (PHD) reader family for their histone tail interactions” (Epigenetics & Chromatin, 2020)

What was measured:
Experiment in all cases: Histone peptide microarray
Format in all cases: binding, human
KDM5B (1) = settings: sheet "Array Heatmap"; GST-tagged KDM5B (1); arrays performed twice, total replicate number n = 4
Text: (§1) To more comprehensively define the histone interactions of the 31 PHD readers identified from the domain microarray analyses, we probed each on an alternate microarray platform containing a library of 293 synthetic histone peptides with single or combinatorial PTMs (Additional file 2: Figure S4 and Additional file 3: Table S2).
(§2) The 31 GST-tagged PHD readers identified in the PHD finger domain array were expressed and purified as previously. Histone peptide arrays and peptide pulldown assays were conducted as recently described (specifically, the optimized protocol from Petell et al. for the former).
Supplementary file 13072_2020_328_MOESM3_ESM.xlsx: Additional file 3: Table S2. […] Excel Tab Peptide List is a compiled list of the entire 293 histone peptide library with amino acid sequence ranges. […] Each number corresponds to the peptide number designated in Peptide List. Excel Tab Average Signals is a compiled set of binding data: chromatin reader at 0.5 μM vs. entire 293 peptide library. Data is presented as the average and standard deviation of 4 replicates. The average signals are colored to indicate signal intensity with green being strong and white being weak/low. […] Key: red= stronger relative binding; blue = weaker relative binding. Excel Tab Array info summary is a table summarizing the domains, sequence coverage, array signal range, and noise for each of the GST-tagged readers assayed on the peptide microarrays.

MLL5 = settings: sheet "Array Heatmap"; GST-tagged MLL5; arrays performed twice, total replicate number n = 4
Text: as §1, with “S2). […] In general, the 31 PHD fingers were confirmed to associate with the H3 tail with the same H3K4 methyl preferences as in the domain microarrays (Fig. 2; Additional file 3: Table S2). […] In addition, we confirmed the newly identified interactions observed with the domain microarrays for PHRF1 and TRIM66 (Fig. 2).” for “S2).”
as §2
(§3) Supplementary file 13072_2020_328_MOESM3_ESM.xlsx: Additional file 3: Table S2. Histone Peptide Microarray Results. Excel Tab Peptide List is a compiled list of the entire 293 histone peptide library with amino acid sequence ranges. Excel Tab Peptide Array Grid Map is a table representing the pattern in which peptides have been printed for the peptide microarray. Each number corresponds to the peptide number designated in Peptide List. Excel Tab Average Signals is a compiled set of binding data: chromatin reader at 0.5 μM vs. entire 293 peptide library. Data is presented as the average and standard deviation of 4 replicates. The average signals are colored to indicate signal intensity with green being strong and white being weak/low. […] Key: red= stronger relative binding; blue = weaker relative binding. Excel Tab Array info summary is a table summarizing the domains, sequence coverage, array signal range, and noise for each of the GST-tagged readers assayed on the peptide microarrays.

PHF2 = settings: sheet "Array Heatmap"; GST-tagged PHF2; arrays performed twice, total replicate number n = 4
Text: as §1, with “S2). […] In general, the 31 PHD fingers were confirmed to associate with the H3 tail with the same H3K4 methyl preferences as in the domain microarrays (Fig. 2; Additional file 3: Table S2). […] In addition, we confirmed the newly identified interactions observed with the domain microarrays for PHRF1 and TRIM66 (Fig. 2).” for “S2).”
as §2, §3

SP140L = settings: sheet "Array Heatmap"; GST-tagged SP140L; arrays performed twice, total replicate number n = 4
Text: as §1, with “S2). […] In general, the 31 PHD fingers were confirmed to associate with the H3 tail with the same H3K4 methyl preferences as in the domain microarrays (Fig. 2; Additional file 3: Table S2). […] In addition, we confirmed the newly identified interactions observed with the domain microarrays for PHRF1 and TRIM66 (Fig. 2).” for “S2).”
as §2, §3

KDM5A (3) = settings: sheet "Array Heatmap"; GST-tagged KDM5A (3); arrays performed twice, total replicate number n = 4
Text: as §1, with “S2). […] In general, the 31 PHD fingers were confirmed to associate with the H3 tail with the same H3K4 methyl preferences as in the domain microarrays (Fig. 2; Additional file 3: Table S2). […] In addition, we confirmed the newly identified interactions observed with the domain microarrays for PHRF1 and TRIM66 (Fig. 2).” for “S2).”
as §2, §3

ING1 = settings: sheet "Array Heatmap"; GST-tagged ING1; arrays performed twice, total replicate number n = 4
Text: as §1, with “S2). […] In general, the 31 PHD fingers were confirmed to associate with the H3 tail with the same H3K4 methyl preferences as in the domain microarrays (Fig. 2; Additional file 3: Table S2). […] In addition, we confirmed the newly identified interactions observed with the domain microarrays for PHRF1 and TRIM66 (Fig. 2).” for “S2).”
as §2, §3

PHF8 = settings: sheet "Array Heatmap"; GST-tagged PHF8; arrays performed twice, total replicate number n = 4
Text: as §1, with “S2). […] In general, the 31 PHD fingers were confirmed to associate with the H3 tail with the same H3K4 methyl preferences as in the domain microarrays (Fig. 2; Additional file 3: Table S2). […] In addition, we confirmed the newly identified interactions observed with the domain microarrays for PHRF1 and TRIM66 (Fig. 2).” for “S2).”
as §2, §3

KDM5A (1) = settings: sheet "Array Heatmap"; GST-tagged KDM5A (1); arrays performed twice, total replicate number n = 4
Text: as §1, with “S2). […] In general, the 31 PHD fingers were confirmed to associate with the H3 tail with the same H3K4 methyl preferences as in the domain microarrays (Fig. 2; Additional file 3: Table S2). […] In addition, we confirmed the newly identified interactions observed with the domain microarrays for PHRF1 and TRIM66 (Fig. 2).” for “S2).”
as §2, §3

DPF2 (PPC2W2) = settings: sheet "Array Heatmap"; GST-tagged DPF2 (PPC2W2); arrays performed twice, total replicate number n = 4
Text: as §1, with “S2). […] In general, the 31 PHD fingers were confirmed to associate with the H3 tail with the same H3K4 methyl preferences as in the domain microarrays (Fig. 2; Additional file 3: Table S2). […] In addition, we confirmed the newly identified interactions observed with the domain microarrays for PHRF1 and TRIM66 (Fig. 2).” for “S2).”
as §2, §3

KDM4C (TTP) = settings: sheet "Array Heatmap"; GST-tagged KDM4C (TTP); arrays performed twice, total replicate number n = 4
Text: as §1, with “S2). […] In general, the 31 PHD fingers were confirmed to associate with the H3 tail with the same H3K4 methyl preferences as in the domain microarrays (Fig. 2; Additional file 3: Table S2). […] In addition, we confirmed the newly identified interactions observed with the domain microarrays for PHRF1 and TRIM66 (Fig. 2).” for “S2).”
as §2, §3

BAZ2B = settings: sheet "Array Heatmap"; GST-tagged BAZ2B; arrays performed twice, total replicate number n = 4
Text: as §1, with “S2). […] In general, the 31 PHD fingers were confirmed to associate with the H3 tail with the same H3K4 methyl preferences as in the domain microarrays (Fig. 2; Additional file 3: Table S2). […] In addition, we confirmed the newly identified interactions observed with the domain microarrays for PHRF1 and TRIM66 (Fig. 2).” for “S2).”
as §2, §3

ING2 = settings: sheet "Array Heatmap"; GST-tagged ING2; arrays performed twice, total replicate number n = 4
Text: as §1, with “S2). […] In general, the 31 PHD fingers were confirmed to associate with the H3 tail with the same H3K4 methyl preferences as in the domain microarrays (Fig. 2; Additional file 3: Table S2). […] In addition, we confirmed the newly identified interactions observed with the domain microarrays for PHRF1 and TRIM66 (Fig. 2).” for “S2).”
as §2, §3

PHF21A = settings: sheet "Array Heatmap"; GST-tagged PHF21A; arrays performed twice, total replicate number n = 4
Text: as §1, with “S2). […] In general, the 31 PHD fingers were confirmed to associate with the H3 tail with the same H3K4 methyl preferences as in the domain microarrays (Fig. 2; Additional file 3: Table S2). […] In addition, we confirmed the newly identified interactions observed with the domain microarrays for PHRF1 and TRIM66 (Fig. 2).” for “S2).”
as §2, §3

KDM5B (3) = settings: sheet "Array Heatmap"; GST-tagged KDM5B (3); arrays performed twice, total replicate number n = 4
Text: as §1, with “S2). […] In general, the 31 PHD fingers were confirmed to associate with the H3 tail with the same H3K4 methyl preferences as in the domain microarrays (Fig. 2; Additional file 3: Table S2). […] In addition, we confirmed the newly identified interactions observed with the domain microarrays for PHRF1 and TRIM66 (Fig. 2).” for “S2).”
as §2, §3

CHD4 (PPCC) = settings: sheet "Array Heatmap"; GST-tagged CHD4 (PPCC); arrays performed twice, total replicate number n = 4
Text: as §1, with “S2). […] In general, the 31 PHD fingers were confirmed to associate with the H3 tail with the same H3K4 methyl preferences as in the domain microarrays (Fig. 2; Additional file 3: Table S2). […] In addition, we confirmed the newly identified interactions observed with the domain microarrays for PHRF1 and TRIM66 (Fig. 2).” for “S2).”
as §2, §3

TRIM66 (PB) = settings: sheet "Array Heatmap"; GST-tagged TRIM66 (PB); arrays performed twice, total replicate number n = 4
Text: as §1, with “S2). […] In general, the 31 PHD fingers were confirmed to associate with the H3 tail with the same H3K4 methyl preferences as in the domain microarrays (Fig. 2; Additional file 3: Table S2). […] In addition, we confirmed the newly identified interactions observed with the domain microarrays for PHRF1 and TRIM66 (Fig. 2).” for “S2).”
as §2, §3

AIRE (PP) = settings: sheet "Array Heatmap"; GST-tagged AIRE (PP); arrays performed twice, total replicate number n = 4
Text: as §1, with “S2). […] In general, the 31 PHD fingers were confirmed to associate with the H3 tail with the same H3K4 methyl preferences as in the domain microarrays (Fig. 2; Additional file 3: Table S2). […] In addition, we confirmed the newly identified interactions observed with the domain microarrays for PHRF1 and TRIM66 (Fig. 2).” for “S2).”
as §2, §3

DIDO1 = settings: sheet "Array Heatmap"; GST-tagged DIDO1; arrays performed twice, total replicate number n = 4
Text: as §1, with “S2). […] In general, the 31 PHD fingers were confirmed to associate with the H3 tail with the same H3K4 methyl preferences as in the domain microarrays (Fig. 2; Additional file 3: Table S2). […] In addition, we confirmed the newly identified interactions observed with the domain microarrays for PHRF1 and TRIM66 (Fig. 2).” for “S2).”
as §2, §3

MORC3 (CW) = settings: sheet "Array Heatmap"; GST-tagged MORC3 (CW); arrays performed twice, total replicate number n = 4
Text: as §1, with “S2). […] In general, the 31 PHD fingers were confirmed to associate with the H3 tail with the same H3K4 methyl preferences as in the domain microarrays (Fig. 2; Additional file 3: Table S2). […] In addition, we confirmed the newly identified interactions observed with the domain microarrays for PHRF1 and TRIM66 (Fig. 2).” for “S2).”
as §2, §3

PHRF1 (RP) = settings: sheet "Array Heatmap"; GST-tagged PHRF1 (RP); arrays performed twice, total replicate number n = 4
Text: as §1, with “S2). […] In general, the 31 PHD fingers were confirmed to associate with the H3 tail with the same H3K4 methyl preferences as in the domain microarrays (Fig. 2; Additional file 3: Table S2). […] In addition, we confirmed the newly identified interactions observed with the domain microarrays for PHRF1 and TRIM66 (Fig. 2).” for “S2).”
as §2, §3

Row | Substance | Array Heatmap signal, KDM5B (1) (KDM5B (1)) | Array Heatmap signal, MLL5 (MLL5) | Array Heatmap signal, PHF2 (PHF2) | Array Heatmap signal, SP140L (SP140L) | Array Heatmap signal, KDM5A (3) (KDM5A (3)) | Array Heatmap signal, ING1 (ING1) | Array Heatmap signal, PHF8 (PHF8) | Array Heatmap signal, KDM5A (1) (KDM5A (1)) | Array Heatmap signal, DPF2 (PPC2W2) (DPF2 (PPC2W2)) | Array Heatmap signal, KDM4C (TTP) (KDM4C (TTP)) | Array Heatmap signal, BAZ2B (BAZ2B) | Array Heatmap signal, ING2 (ING2) | Array Heatmap signal, PHF21A (PHF21A) | Array Heatmap signal, KDM5B (3) (KDM5B (3)) | Array Heatmap signal, CHD4 (PPCC) (CHD4 (PPCC)) | Array Heatmap signal, TRIM66 (PB) (TRIM66 (PB)) | Array Heatmap signal, AIRE (PP) (AIRE (PP)) | Array Heatmap signal, DIDO1 (DIDO1) | Array Heatmap signal, MORC3 (CW) (MORC3 (CW)) | Array Heatmap signal, PHRF1 (RP) (PHRF1 (RP))
1 | H3K4me1 + K9me2: H3 1-15 | 0.6393 | 0.5361 | 0.5256 | 0.3258 | 0.6108 | 0.5404 | 0.3768 | 0.3964 | 0.6276 | 0.4132 | 0.3774 | 0.6787 | 0.4036 | 0.4913 | 0.5222 | 0.5105 | 0.38 | 0.7103 | 0.6065 | 0.4947
2 | H3K4me2 + K9me2: H3 1-15 | 0.6814 | 0.6156 | 0.6413 | 0.3961 | 0.665 | 0.6537 | 0.4521 | 0.5461 | 0.808 | 0.5756 | 0.5415 | 0.6793 | 0.526 | 0.5432 | 0.6688 | 0.6606 | 0.4852 | 0.8456 | 0.5918 | 0.6456
3 | H3K9me2 (1-15): H3 1-15 | 0.6602 | 0.5365 | 0.4798 | 0.3335 | 0.4311 | 0.508 | 0.3238 | 0.4531 | 0.6348 | 0.4574 | 0.4489 | 0.5906 | 0.4644 | 0.4439 | 0.5681 | 0.7556 | 0.4373 | 0.631 | 0.4062 | 0.5113
